The target in one series is P450 Isozyme 2C9 (Homo sapiens, UniProt P11712). In words: Tolbutamide hydroxylase activity in human microsome preparations. The following applies: test substance at 100 μM, human microsomes.
Another series has as its target P450 Isozyme 2C19 (Homo sapiens, UniProt P33261). In words: Mephenytoin hydroxylase activity in human microsome preparations. The following applies: standard inhibitor at 50 μM, human microsomes.

The chains behind the UniProt entries cited, without tags or fusion partners.
UniProt P11712, whole entry: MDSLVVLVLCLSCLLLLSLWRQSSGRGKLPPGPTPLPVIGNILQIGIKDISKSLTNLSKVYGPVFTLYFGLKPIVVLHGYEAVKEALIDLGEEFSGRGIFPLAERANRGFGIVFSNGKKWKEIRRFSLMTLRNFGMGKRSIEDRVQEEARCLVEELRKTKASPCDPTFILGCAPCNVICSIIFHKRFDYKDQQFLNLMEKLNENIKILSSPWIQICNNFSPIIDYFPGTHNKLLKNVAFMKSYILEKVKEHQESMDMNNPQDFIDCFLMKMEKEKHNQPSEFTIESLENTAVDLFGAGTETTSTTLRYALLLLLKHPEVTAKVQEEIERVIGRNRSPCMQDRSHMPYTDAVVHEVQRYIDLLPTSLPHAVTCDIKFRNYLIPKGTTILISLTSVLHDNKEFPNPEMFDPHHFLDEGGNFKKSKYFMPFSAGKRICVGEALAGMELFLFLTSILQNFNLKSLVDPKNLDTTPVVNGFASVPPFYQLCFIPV
UniProt P33261, whole entry: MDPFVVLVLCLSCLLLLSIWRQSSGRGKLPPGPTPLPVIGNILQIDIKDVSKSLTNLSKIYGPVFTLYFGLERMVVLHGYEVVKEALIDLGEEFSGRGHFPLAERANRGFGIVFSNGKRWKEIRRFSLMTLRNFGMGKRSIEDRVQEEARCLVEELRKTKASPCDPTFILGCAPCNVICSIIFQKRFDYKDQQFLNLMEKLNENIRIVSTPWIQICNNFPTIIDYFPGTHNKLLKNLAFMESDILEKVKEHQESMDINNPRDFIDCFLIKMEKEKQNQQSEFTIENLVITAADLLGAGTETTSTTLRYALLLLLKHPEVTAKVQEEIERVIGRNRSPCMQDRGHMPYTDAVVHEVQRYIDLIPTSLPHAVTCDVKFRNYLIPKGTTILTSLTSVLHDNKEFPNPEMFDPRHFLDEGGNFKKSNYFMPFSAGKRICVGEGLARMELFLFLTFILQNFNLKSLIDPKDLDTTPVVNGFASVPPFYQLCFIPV

On to `COC(=O)[C@@H](c1ccccc1)[C@@H]1CCCCN1` [ltmp], for which, at P450 Isozyme 2C9, the “% Inhibition of Enzyme Activity (Tolbutamide hydroxylase, 2C9)” value was 34%.
On to `N[C@@H]1C[C@H]1c1ccccc1` [Tranylcypronine], for which, at P450 Isozyme 2C19, the “% Inhibition of Enzyme Activity (Mephenytoin hydroxylase, 2C19)” value was 83%.

The values are drawn from patent US7267949B2, “Composition comprising methylphenidate and another drug” (Celltech Pharma Europe Limited, priority 1995, dated 2007).
